Read-outs that look alike come from different tables or passages of the source.
What was measured:
human hemoglobin (human) [1] = target: human hemoglobin (human) (UniProt P69905); assay: cell-based or functional assay
human hemoglobin (human) [2] = target: human hemoglobin (human) (UniProt P69905); assay: OC-Hemodia Auto III immunoassay, Hb 6.2 pmol/mL, Hpt 6.2 pmol/mL (1 Unit), no stool, initial value
human hemoglobin (human) [3] = target: human hemoglobin (human) (UniProt P69905); assay: OC-Hemodia Auto III immunoassay, Hb 6.2 pmol/mL, Hpt 12.4 pmol/mL (2 Unit), no stool, initial value
human hemoglobin (human) [4] = target: human hemoglobin (human) (UniProt P69905); assay: OC-Hemodia Auto III immunoassay, Hb 6.2 pmol/mL, Hpt 3.1 pmol/mL (0.5 Unit), no stool, initial value
human hemoglobin (human) [5] = target: human hemoglobin (human) (UniProt P69905); assay: OC-Hemodia Auto III immunoassay, Hb 9.3 pmol/mL, Hpt 9.3 pmol/mL (1 Unit), 0.5% feces, initial value
human hemoglobin (human) [6] = target: human hemoglobin (human) (UniProt P69905); assay: OC-Hemodia Auto III immunoassay, Hb 6.2 pmol/mL, Hpt 1.55 pmol/mL (0.25 Unit), no stool, initial value
human hemoglobin (human) [7] = target: human hemoglobin (human) (UniProt P69905); assay: OC-Hemodia Auto III immunoassay, Hb 9.3 pmol/mL, Hpt 4.65 pmol/mL (0.5 Unit), 0.5% feces, initial value
human hemoglobin (human) [8] = target: human hemoglobin (human) (UniProt P69905); assay: OC-Hemodia Auto III immunoassay, Hb 6.2 pmol/mL, Hpt 0.775 pmol/mL (0.125 Unit), no stool, initial value
human hemoglobin (human) [9] = target: human hemoglobin (human) (UniProt P69905); assay: OC-Hemodia Auto III immunoassay, Hb 9.3 pmol/mL, Hpt 2.325 pmol/mL (0.25 Unit), 0.5% feces, initial value
human hemoglobin (human) [10] = target: human hemoglobin (human) (UniProt P69905); assay: cell-based or functional assay; remark: listed apart in the source
human hemoglobin (human) [11] = target: human hemoglobin (human) (UniProt P69905); assay: OC-Hemodia Auto III immunoassay, Hb 6.2 pmol/mL, Hpt 6.2 pmol/mL (1 Unit), no stool, initial value; remark: listed apart in the source
human hemoglobin (human) [12] = target: human hemoglobin (human) (UniProt P69905); assay: OC-Hemodia Auto III immunoassay, Hb 6.2 pmol/mL, Hpt 3.1 pmol/mL (0.5 Unit), no stool, initial value; remark: listed apart in the source
human hemoglobin (human) [13] = target: human hemoglobin (human) (UniProt P69905); assay: OC-Hemodia Auto III immunoassay, Hb 9.3 pmol/mL, Hpt 9.3 pmol/mL (1 Unit), 0.5% feces, initial value; remark: listed apart in the source
human hemoglobin (human) [14] = target: human hemoglobin (human) (UniProt P69905); assay: OC-Hemodia Auto III immunoassay, Hb 6.2 pmol/mL, Hpt 1.55 pmol/mL (0.25 Unit), no stool, initial value; remark: listed apart in the source
human hemoglobin (human) [15] = target: human hemoglobin (human) (UniProt P69905); assay: OC-Hemodia Auto III immunoassay, Hb 9.3 pmol/mL, Hpt 4.65 pmol/mL (0.5 Unit), 0.5% feces, initial value; remark: listed apart in the source
human hemoglobin (human) [16] = target: human hemoglobin (human) (UniProt P69905); assay: OC-Hemodia Auto III immunoassay, Hb 6.2 pmol/mL, Hpt 0.775 pmol/mL (0.125 Unit), no stool, initial value; remark: listed apart in the source
human hemoglobin (human) [17] = target: human hemoglobin (human) (UniProt P69905); assay: OC-Hemodia Auto III immunoassay, Hb 9.3 pmol/mL, Hpt 2.325 pmol/mL (0.25 Unit), 0.5% feces, initial value; remark: listed apart in the source

Amino acid sequences for entries named in this document (tags omitted). Residues count along the entry.
UniProt P69905, 2-142, chain 1 of 2: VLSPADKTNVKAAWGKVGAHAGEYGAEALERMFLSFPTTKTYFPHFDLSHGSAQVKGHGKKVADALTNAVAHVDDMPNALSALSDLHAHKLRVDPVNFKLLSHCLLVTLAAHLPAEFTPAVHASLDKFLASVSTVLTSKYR

“Human dHpt (PNGase) (from UniProt P00738 19-406)” was tested, and the Residual Hb ratio (%), 37°C 7 days, Hpt 0.775 pmol/mL (0.125 Unit), no stool (human hemoglobin (human) [1]) was 48%, the Residual Hb ratio (%), 37°C 7 days, Hpt 1.55 pmol/mL (0.25 Unit), no stool (human hemoglobin (human) [1]) was 55% and the Residual Hb ratio (%), 37°C 7 days, Hpt 2.325 pmol/mL (0.25 Unit), 0.5% feces (human hemoglobin (human) [1]) was 23%. For the same molecule, the Residual Hb ratio (%), 37°C 7 days, Hpt 3.1 pmol/mL (0.5 Unit), no stool (human hemoglobin (human) [1]) was 62%, the Residual Hb ratio (%), 37°C 7 days, Hpt 4.65 pmol/mL (0.5 Unit), 0.5% feces (human hemoglobin (human) [1]) was 43% and the Residual Hb ratio (%), 37°C 7 days, Hpt 6.2 pmol/mL (1 Unit), no stool (human hemoglobin (human) [1]) was 94%. For the same molecule, the Residual Hb ratio (%), 37°C 7 days, Hpt 9.3 pmol/mL (1 Unit), 0.5% feces (human hemoglobin (human) [1]) was 82%, the Residual Hb ratio (%), 37°C 7 days, Hpt 12.4 pmol/mL (2 Unit), no stool (human hemoglobin (human) [1]) was 100% and the Residual Hb ratio (%), 37°C 14 days, Hpt 0.775 pmol/mL (0.125 Unit), no stool (human hemoglobin (human) [1]) was 23%. For the same molecule, the Residual Hb ratio (%), 37°C 14 days, Hpt 1.55 pmol/mL (0.25 Unit), no stool (human hemoglobin (human) [1]) was 35%, the Residual Hb ratio (%), 37°C 14 days, Hpt 2.325 pmol/mL (0.25 Unit), 0.5% feces (human hemoglobin (human) [1]) was 18% and the Residual Hb ratio (%), 37°C 14 days, Hpt 3.1 pmol/mL (0.5 Unit), no stool (human hemoglobin (human) [1]) was 50%. It also gave a Residual Hb ratio (%), 37°C 14 days, Hpt 4.65 pmol/mL (0.5 Unit), 0.5% feces (human hemoglobin (human) [1]) of 40%, a Residual Hb ratio (%), 37°C 14 days, Hpt 6.2 pmol/mL (1 Unit), no stool (human hemoglobin (human) [1]) of 95% and a Residual Hb ratio (%), 37°C 14 days, Hpt 9.3 pmol/mL (1 Unit), 0.5% feces (human hemoglobin (human) [1]) of 80%. It also gave a Residual Hb ratio (%), 37°C 14 days, Hpt 12.4 pmol/mL (2 Unit), no stool (human hemoglobin (human) [1]) of 101%, a residual Hb ratio, 1 Unit of Hpt, 37°C 7 days, no stool (human hemoglobin (human) [1]) greater than 70% and a Ratio to no Hpt addition (%) (human hemoglobin (human) [2]) of 82%. For the same molecule, the Ratio to no Hpt addition (%) (human hemoglobin (human) [3]) was 47%, the Ratio to no Hpt addition (%) (human hemoglobin (human) [4]) was 93% and the Ratio to no Hpt addition (%) (human hemoglobin (human) [5]) was 87%. It also gave a Ratio to no Hpt addition (%) (human hemoglobin (human) [6]) of 94%, a Ratio to no Hpt addition (%) (human hemoglobin (human) [7]) of 93% and a Ratio to no Hpt addition (%) (human hemoglobin (human) [8]) of 99%. For the same molecule, the Ratio to no Hpt addition (%) (human hemoglobin (human) [9]) was 99%.

B1: Porcine dHpt (PNGase) (protein)
chain: AETGNEATDATDDSCPKPPEIPKGYVEHMVRYHCQTYYKLRTAGDGVYTLDSNKQWTNKVTGEKLPECEAVCGKPKNPVDQVQRIMGGSLDAKGSFPWQAKMISHHNLTSGATLINEQWLLTTAKNLRLGHKNDTKAKDIAPTLRLYVGKKQEVEIEKVIFHPDNSTVDIGLIKLKQKVPVNERVMPICLPSKDYVNVGLVGYVSGWGRNANLNFTEHLKYVMLPVADQEKCVQYYEGSTVPEKKTPKSPVGVQPILNEHTFCAGLSKYQEDTCYGDAGSAFAVHDKDDDTWYAAGILSFDKSCRTAEYGVYVRVTSILDWIQTTIADN
modifications: N-linked glycans (Asn 125, 151, 183, 232 of SEQ ID NO: 4) removed with PNGase F
B1 showed a Residual Hb ratio (%), 37°C 7 days, Hpt 0.775 pmol/mL (0.125 Unit), no stool (human hemoglobin (human) [10]) of 41%, a Residual Hb ratio (%), 37°C 7 days, Hpt 1.55 pmol/mL (0.25 Unit), no stool (human hemoglobin (human) [10]) of 45% and a Residual Hb ratio (%), 37°C 7 days, Hpt 2.325 pmol/mL (0.25 Unit), 0.5% feces (human hemoglobin (human) [10]) of 19%. It also gave a Residual Hb ratio (%), 37°C 7 days, Hpt 3.1 pmol/mL (0.5 Unit), no stool (human hemoglobin (human) [10]) of 58%, a Residual Hb ratio (%), 37°C 7 days, Hpt 4.65 pmol/mL (0.5 Unit), 0.5% feces (human hemoglobin (human) [10]) of 34% and a Residual Hb ratio (%), 37°C 7 days, Hpt 6.2 pmol/mL (1 Unit), no stool (human hemoglobin (human) [10]) of 88%. For the same molecule, the Residual Hb ratio (%), 37°C 7 days, Hpt 9.3 pmol/mL (1 Unit), 0.5% feces (human hemoglobin (human) [10]) was 69%, the Residual Hb ratio (%), 37°C 14 days, Hpt 0.775 pmol/mL (0.125 Unit), no stool (human hemoglobin (human) [10]) was 23% and the Residual Hb ratio (%), 37°C 14 days, Hpt 1.55 pmol/mL (0.25 Unit), no stool (human hemoglobin (human) [10]) was 34%. The Residual Hb ratio (%), 37°C 14 days, Hpt 2.325 pmol/mL (0.25 Unit), 0.5% feces (human hemoglobin (human) [10]) was 16%, the Residual Hb ratio (%), 37°C 14 days, Hpt 3.1 pmol/mL (0.5 Unit), no stool (human hemoglobin (human) [10]) was 58% and the Residual Hb ratio (%), 37°C 14 days, Hpt 4.65 pmol/mL (0.5 Unit), 0.5% feces (human hemoglobin (human) [10]) was 32%. The Residual Hb ratio (%), 37°C 14 days, Hpt 6.2 pmol/mL (1 Unit), no stool (human hemoglobin (human) [10]) was 87%, the Residual Hb ratio (%), 37°C 14 days, Hpt 9.3 pmol/mL (1 Unit), 0.5% feces (human hemoglobin (human) [10]) was 67% and the residual Hb ratio, 1 Unit of Hpt, 37°C 7 days, no stool (human hemoglobin (human) [10]) was greater than 70%. For the same molecule, the Ratio to no Hpt addition (%) (human hemoglobin (human) [11]) was 78%, the Ratio to no Hpt addition (%) (human hemoglobin (human) [12]) was 89% and the Ratio to no Hpt addition (%) (human hemoglobin (human) [13]) was 81%. The Ratio to no Hpt addition (%) (human hemoglobin (human) [14]) was 95%, the Ratio to no Hpt addition (%) (human hemoglobin (human) [15]) was 91% and the Ratio to no Hpt addition (%) (human hemoglobin (human) [16]) was 97%. It also gave a Ratio to no Hpt addition (%) (human hemoglobin (human) [17]) of 95%.

B2: Porcine dHpt (ENGase) (protein)
chain: B1 chain
modifications: N-linked glycans (Asn 125, 151, 183, 232 of SEQ ID NO: 4) cut with Endo F2; by the description one GlcNAc, with or without fucose, remains
B2 gave a Residual Hb ratio (%), 37°C 7 days, Hpt 0.775 pmol/mL (0.125 Unit), no stool (human hemoglobin (human) [10]) of 45%, a Residual Hb ratio (%), 37°C 7 days, Hpt 1.55 pmol/mL (0.25 Unit), no stool (human hemoglobin (human) [10]) of 46% and a Residual Hb ratio (%), 37°C 7 days, Hpt 2.325 pmol/mL (0.25 Unit), 0.5% feces (human hemoglobin (human) [10]) of 18%. The Residual Hb ratio (%), 37°C 7 days, Hpt 3.1 pmol/mL (0.5 Unit), no stool (human hemoglobin (human) [10]) was 55%, the Residual Hb ratio (%), 37°C 7 days, Hpt 4.65 pmol/mL (0.5 Unit), 0.5% feces (human hemoglobin (human) [10]) was 30% and the Residual Hb ratio (%), 37°C 7 days, Hpt 6.2 pmol/mL (1 Unit), no stool (human hemoglobin (human) [10]) was 86%. The Residual Hb ratio (%), 37°C 7 days, Hpt 9.3 pmol/mL (1 Unit), 0.5% feces (human hemoglobin (human) [10]) was 57%, the Residual Hb ratio (%), 37°C 14 days, Hpt 0.775 pmol/mL (0.125 Unit), no stool (human hemoglobin (human) [10]) was 24% and the Residual Hb ratio (%), 37°C 14 days, Hpt 1.55 pmol/mL (0.25 Unit), no stool (human hemoglobin (human) [10]) was 33%. For the same molecule, the Residual Hb ratio (%), 37°C 14 days, Hpt 2.325 pmol/mL (0.25 Unit), 0.5% feces (human hemoglobin (human) [10]) was 16%, the Residual Hb ratio (%), 37°C 14 days, Hpt 3.1 pmol/mL (0.5 Unit), no stool (human hemoglobin (human) [10]) was 54% and the Residual Hb ratio (%), 37°C 14 days, Hpt 4.65 pmol/mL (0.5 Unit), 0.5% feces (human hemoglobin (human) [10]) was 29%. For the same molecule, the Residual Hb ratio (%), 37°C 14 days, Hpt 6.2 pmol/mL (1 Unit), no stool (human hemoglobin (human) [10]) was 88%, the Residual Hb ratio (%), 37°C 14 days, Hpt 9.3 pmol/mL (1 Unit), 0.5% feces (human hemoglobin (human) [10]) was 56% and the residual Hb ratio, 1 Unit of Hpt, 37°C 7 days, no stool (human hemoglobin (human) [10]) was greater than 70%. The Ratio to no Hpt addition (%) (human hemoglobin (human) [11]) was 88%, the Ratio to no Hpt addition (%) (human hemoglobin (human) [12]) was 94% and the Ratio to no Hpt addition (%) (human hemoglobin (human) [13]) was 94%. For the same molecule, the Ratio to no Hpt addition (%) (human hemoglobin (human) [14]) was 96%, the Ratio to no Hpt addition (%) (human hemoglobin (human) [15]) was 98% and the Ratio to no Hpt addition (%) (human hemoglobin (human) [16]) was 98%. The Ratio to no Hpt addition (%) (human hemoglobin (human) [17]) was 100%.
